# Laboratory results as given in ChEMBL document CHEMBL1135445, “4'-Arylpyrrolomorphinans: effect of a pyrrolo-N-benzyl substituent in enhancing delta-opioid antagonist activity” (J Med Chem, 2002).
# Amino acid sequences for entries named in this document (tags omitted). A change or cut given only in a name is not applied to a line headed by its entry.
# UniProt P41143, whole entry: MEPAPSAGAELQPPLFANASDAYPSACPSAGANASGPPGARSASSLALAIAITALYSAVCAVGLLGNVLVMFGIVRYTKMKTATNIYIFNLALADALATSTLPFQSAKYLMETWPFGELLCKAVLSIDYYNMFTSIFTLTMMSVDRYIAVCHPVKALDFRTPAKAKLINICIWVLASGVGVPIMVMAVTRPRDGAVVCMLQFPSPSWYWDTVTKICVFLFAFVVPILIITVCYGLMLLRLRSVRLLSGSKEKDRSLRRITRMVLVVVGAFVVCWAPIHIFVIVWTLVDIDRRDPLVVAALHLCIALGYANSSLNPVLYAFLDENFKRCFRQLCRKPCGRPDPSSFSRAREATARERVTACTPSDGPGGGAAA
# UniProt P41145: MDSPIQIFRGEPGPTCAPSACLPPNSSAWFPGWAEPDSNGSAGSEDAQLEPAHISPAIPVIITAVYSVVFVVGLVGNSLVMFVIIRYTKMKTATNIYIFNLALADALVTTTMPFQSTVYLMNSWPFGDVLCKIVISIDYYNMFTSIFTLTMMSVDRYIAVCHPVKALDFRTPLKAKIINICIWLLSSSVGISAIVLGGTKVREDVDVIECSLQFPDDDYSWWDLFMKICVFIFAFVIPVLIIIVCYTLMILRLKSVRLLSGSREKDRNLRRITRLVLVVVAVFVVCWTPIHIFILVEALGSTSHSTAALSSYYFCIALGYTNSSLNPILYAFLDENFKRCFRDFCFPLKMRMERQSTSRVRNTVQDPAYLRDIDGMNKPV
# UniProt P35372, whole entry: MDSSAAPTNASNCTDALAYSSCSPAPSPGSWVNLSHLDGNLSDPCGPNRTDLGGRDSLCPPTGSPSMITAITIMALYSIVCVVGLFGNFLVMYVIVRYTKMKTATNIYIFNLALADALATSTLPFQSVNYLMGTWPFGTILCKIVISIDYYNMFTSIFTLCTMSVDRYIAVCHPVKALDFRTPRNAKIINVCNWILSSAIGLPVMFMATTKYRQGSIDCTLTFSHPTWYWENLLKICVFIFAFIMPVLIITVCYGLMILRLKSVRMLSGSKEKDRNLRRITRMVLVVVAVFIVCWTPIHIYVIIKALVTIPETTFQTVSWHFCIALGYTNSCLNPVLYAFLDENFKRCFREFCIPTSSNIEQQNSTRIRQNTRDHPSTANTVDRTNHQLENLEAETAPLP
# Assays:
# Format in all cases: functional, cell-based
# [1] = target: Delta-type opioid receptor (Homo sapiens, UniProt P41143); assay: The antagonistic activity tested in [35S]GTP-gamma-S, Recombinant Human Opioid receptor delta 1 transfected in to CHO cells for the displacement of [3H]Cl-DPDPE (delta)
# Method in brief: (§1)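 [35S]GTPγS binding in CHO cells expressing cloned human opioid receptors. Antagonist affinity (Ke) was derived from the compound's blockade of a standard agonist: DAMGO at mu, Cl-DPDPE at delta, U69593 at kappa.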
# [2] = target: Kappa-type opioid receptor (Homo sapiens, UniProt P41145); assay: The antagonistic activity of compound was tested in [35S]GTP-gamma-S, Recombinant Human Opioid receptor kappa 1 transfected in to CHO cells for the displacement of [3H]U-69593; method in brief: as §1
# [3] = target: Mu-type opioid receptor (Homo sapiens, UniProt P35372); assay: The antagonistic activity tested in [35S]-GTP-gamma S Recombinant Human Opioid receptor mu 1 transfected in to CHO cells for the displacement of [3H]DAMGO (mu); method in brief: as §1
smiles,measurement,setting,value
Oc1ccc2c3c1O[C@H]1c4c(c(-c5ccccc5)cn4Cc4ccccc4)C[C@@]4(O)C(C2)N(CC2CC2)CC[C@]314,Ke,[1],0.43 nM
same,Ke,[2],21.6 nM
same,Ke,[3],8.09 nM
